Measurements from patent US20100041920A1, “NEW SALT FORMS OF AN AMINOINDAN DERIVATIVE” (priority 2008, published 2010).

[1] = 10 months, room temperature, ambient atmosphere

Substance: rasagiline L-tartrate
- Colour/Aspect 10 months later [1]: white powder
- Purity (HPLC) 10 months later [1]: 99.52%
- XRD result 10 months later [1]: Form I
- XRD result Initial (initial, before storage): Form I
- stability after ten months of storage (in words) (ten months of storage): highly stable in terms of polymorphic form
